Measurements published in BindingDB's records for doi:10.1016/j.ejmech.2011.10.026 (National Cheng Kung University, 2012).

Biological target: T1, Nitric oxide synthase, inducible (Mus musculus, UniProt P29477)
T1 sequence (P29477 whole entry): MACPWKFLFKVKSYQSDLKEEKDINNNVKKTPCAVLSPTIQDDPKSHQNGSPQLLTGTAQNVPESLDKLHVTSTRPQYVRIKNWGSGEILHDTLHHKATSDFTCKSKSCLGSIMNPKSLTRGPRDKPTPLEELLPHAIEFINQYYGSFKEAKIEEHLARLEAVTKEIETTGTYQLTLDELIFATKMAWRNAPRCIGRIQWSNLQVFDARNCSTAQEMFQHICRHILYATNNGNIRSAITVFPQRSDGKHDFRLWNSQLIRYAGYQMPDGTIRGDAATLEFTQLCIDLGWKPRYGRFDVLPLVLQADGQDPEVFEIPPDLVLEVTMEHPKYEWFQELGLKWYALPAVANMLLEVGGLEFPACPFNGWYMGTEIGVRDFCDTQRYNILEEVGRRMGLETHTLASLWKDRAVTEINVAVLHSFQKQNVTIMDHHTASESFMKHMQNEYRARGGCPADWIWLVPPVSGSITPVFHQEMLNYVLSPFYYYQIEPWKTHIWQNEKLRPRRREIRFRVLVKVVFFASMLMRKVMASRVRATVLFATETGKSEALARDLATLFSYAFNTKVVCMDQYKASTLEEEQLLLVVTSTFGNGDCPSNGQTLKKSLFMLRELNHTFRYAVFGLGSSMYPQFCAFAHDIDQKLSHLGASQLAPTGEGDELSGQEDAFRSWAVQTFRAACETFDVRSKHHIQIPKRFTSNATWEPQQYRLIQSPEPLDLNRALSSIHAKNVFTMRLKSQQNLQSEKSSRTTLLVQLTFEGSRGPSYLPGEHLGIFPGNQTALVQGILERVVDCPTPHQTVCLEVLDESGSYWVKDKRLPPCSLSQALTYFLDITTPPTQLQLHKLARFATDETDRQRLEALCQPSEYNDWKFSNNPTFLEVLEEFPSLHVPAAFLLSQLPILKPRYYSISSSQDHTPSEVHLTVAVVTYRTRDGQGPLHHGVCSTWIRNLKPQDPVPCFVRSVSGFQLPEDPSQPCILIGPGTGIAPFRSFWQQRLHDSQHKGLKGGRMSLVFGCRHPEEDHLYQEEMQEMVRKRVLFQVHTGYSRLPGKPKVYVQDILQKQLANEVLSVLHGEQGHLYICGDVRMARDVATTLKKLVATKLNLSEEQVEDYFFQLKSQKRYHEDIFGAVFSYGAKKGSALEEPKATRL
Assay: Inhibition of iNOS-mediated nitric oxide production in LPS-stimulated mouse BV2 cells measured after 24 hrs of post-stimulation by Griess reaction method
Outline: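 Murine BV2 microglia in DMEM with 5% FBS were given compound at 1–50 µM and stimulated with LPS 0.5 µg/mL. Nitrite accumulated in the medium was measured by Griess reagent 24 h after stimulation. L-NAME was the positive control. IC50 given as mean ± SEM of three experiments on different days using cells from different passages.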

Structure (SMILES): COC(=O)[C@@H](N)CCCNC(N)=N[N+](=O)[O-]
- IC50: 13.3 µM
